From ChEMBL document CHEMBL1201862, “PubChem BioAssay data set” (2004)

By UniProt entry, the sequences of proteins in these tests, tags left out.
UniProt P35372, whole entry: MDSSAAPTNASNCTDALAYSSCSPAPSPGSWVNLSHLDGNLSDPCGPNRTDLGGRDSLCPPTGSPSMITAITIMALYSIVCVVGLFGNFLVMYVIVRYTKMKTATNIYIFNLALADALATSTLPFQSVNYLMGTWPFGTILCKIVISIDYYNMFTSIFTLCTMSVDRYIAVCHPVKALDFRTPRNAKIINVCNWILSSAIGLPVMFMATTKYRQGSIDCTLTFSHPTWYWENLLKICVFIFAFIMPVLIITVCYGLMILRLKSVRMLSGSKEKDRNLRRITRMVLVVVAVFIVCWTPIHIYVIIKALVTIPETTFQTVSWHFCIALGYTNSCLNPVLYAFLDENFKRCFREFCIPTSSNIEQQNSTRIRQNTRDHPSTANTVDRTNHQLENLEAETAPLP

Key:
[1] = target: Mu-type opioid receptor (Homo sapiens, UniProt P35372); format: functional, cell-based;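 note: U2OS cells with beta-arrestin recruitment to OPRM1 by beta-gal complementation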
[2] = target: T1, Phospholipase D1 (Homo sapiens, UniProt Q13393); assay: PLD1 inhibitor potency in cells, dose response (AID 602151); format: functional;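 note: cellular PLD1 assay in Calu-1 cells stimulated with PMA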
T1 sequence (Q13393 whole entry): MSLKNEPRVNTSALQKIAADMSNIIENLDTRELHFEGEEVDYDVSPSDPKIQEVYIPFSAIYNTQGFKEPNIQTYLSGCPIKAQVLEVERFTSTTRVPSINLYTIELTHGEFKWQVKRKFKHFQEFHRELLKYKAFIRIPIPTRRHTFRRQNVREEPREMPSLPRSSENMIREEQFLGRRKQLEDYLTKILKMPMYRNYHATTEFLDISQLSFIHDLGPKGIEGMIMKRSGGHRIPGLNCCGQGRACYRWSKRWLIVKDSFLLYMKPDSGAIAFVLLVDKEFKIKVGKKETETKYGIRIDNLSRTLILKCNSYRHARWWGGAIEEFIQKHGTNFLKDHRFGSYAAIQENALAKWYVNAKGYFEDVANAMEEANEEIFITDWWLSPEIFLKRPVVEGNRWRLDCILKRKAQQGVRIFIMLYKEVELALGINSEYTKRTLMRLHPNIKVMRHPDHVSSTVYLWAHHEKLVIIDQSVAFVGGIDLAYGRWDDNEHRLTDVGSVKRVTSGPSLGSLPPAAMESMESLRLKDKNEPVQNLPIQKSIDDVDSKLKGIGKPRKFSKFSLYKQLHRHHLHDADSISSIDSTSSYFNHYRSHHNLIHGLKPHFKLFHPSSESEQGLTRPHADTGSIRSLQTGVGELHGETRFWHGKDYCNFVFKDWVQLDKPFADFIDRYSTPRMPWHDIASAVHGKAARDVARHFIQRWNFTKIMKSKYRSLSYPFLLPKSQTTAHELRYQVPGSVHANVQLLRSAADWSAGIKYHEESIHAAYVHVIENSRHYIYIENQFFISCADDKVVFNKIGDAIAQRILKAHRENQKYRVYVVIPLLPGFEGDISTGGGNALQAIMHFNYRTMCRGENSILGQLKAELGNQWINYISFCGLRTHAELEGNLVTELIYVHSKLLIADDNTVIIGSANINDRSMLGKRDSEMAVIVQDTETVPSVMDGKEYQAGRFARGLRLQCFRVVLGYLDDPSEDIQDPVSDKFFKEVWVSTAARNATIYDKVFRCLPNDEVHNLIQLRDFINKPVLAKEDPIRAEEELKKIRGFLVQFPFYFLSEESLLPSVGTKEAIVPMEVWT

[3] = target: T1, Phospholipase D1; assay: PLD1 purified enzyme concentration response. [Related pubchem assays (depositor defined):AID588854]; format: functional

| SMILES | EC50 [1] | IC50 [2] | IC50 [3] |
| --- | --- | --- | --- |
| CN1C[C@H](C(=O)N[C@]2(C)O[C@@]3(O)[C@@H]4CCCN4C(=O)[C@H](Cc4ccccc4)N3C2=O)CC2c3cccc4[nH]cc(c34)C[C@H]21 (stereo partly drawn) | inactive: 92.4 µM |  |  |
| C[C@@H](CN1CCC2(CC1)C(=O)NCN2c1ccccc1)NC(=O)c1ccc2ccccc2c1 |  | active: 0.035 µM | active: 0.69 µM |

The source made the active and inactive calls.
